Data published in patent publication US20260279694A1, “ELECTROLYTE SOLUTION FOR HYBRID ELECTROLYTIC CAPACITORS AND HYBRID ELECTROLYTIC CAPACITOR” (SANYO CHEMICAL INDUSTRIES, LTD., priority 2023, published 2026).

Assay: Measurement of acid dissociation constant (pKa) by titration in methanol
Type: physicochemical
Conditions: 25° C.; 1 part by weight acid in 99 parts methanol titrated with 0.1 mol/L methanolic potassium hydroxide; pH at half the titrant of first equivalence point
Experimental: At 25° C., 99 parts by weight of methanol was added to 1 part by weight of a carboxylic acid (A), and the contents were shaken and mixed until the carboxylic acid (A) was completely dissolved. A 0.1 mol/L methanolic potassium hydroxide solution was added dropwise to the resulting methanol solution of the carboxylic acid (A) to obtain a titration curve having inflection points, and among the inflection points, an inflection point at which the amount of titrant added was the smallest was defined as an equivalence point. The pH at half the amount of titrant added at the equivalence point on the obtained titration curve was read, and the pH was defined as the acid dissociation constant (pKa) of the carboxylic acid (A).
The pKa of the acid component (A′) was also measured in the same manner as the pKa of the carboxylic acid (A).

Substance | Acid dissociation constant (pKa)
phthalic acid glycerol monoester [Example A12] | 3.7
phthalic acid polyethylene glycol monoester [Example A9] | 4.2
phthalic acid polypropylene glycol monoester [Example A8] | 3.9
trimellitic acid ethylene glycol monoester [Example A3] | 3.4
